Data taken from article PMC6033295, “The Effects of the Honey-Roasting Process on the Pharmacokinetics of the Six Active Compounds of Licorice” (Evidence-based Complementary and Alternative Medicine : eCAM, 2018).

Experiment: Stability of six compounds in rat plasma (QC samples)
Format: in vitro ADME
Conditions: At -80°C for 1 month, rat plasma QC sample, n = 6
Procedure: The stabilities of the six compounds in rat plasma were evaluated by analyzing QC samples under different conditions. […] Long-term stability was tested by storing QC samples at -80°C for one month. RSD was evaluated by analyzing six replicate samples. The stability of the six compounds was evaluated under various conditions. QC samples stored in a freezer at -80°C remained stable for one month. […] The stability data were within the acceptance range of 85%-115% (Table 3).

Compound | Stability, Average (high concentration level) | Stability, Average (medium concentration level)
CC1(C)[C@@H](O)CC[C@]2(C)[C@H]3C(=O)C=C4[C@@H]5C[C@@](C)(C(=O)O)CC[C@]5(C)CC[C@@]4(C)[C@]3(C)CC[C@@H]12 [GA, glycyrrhetinic acid] | 97.3% | 
O=C1C[C@@H](c2ccc(O)cc2)Oc2cc(O)ccc21 [LG, liquiritigenin] |  | 97.3%
